Assay [1] has as its target human autoBACE-2 (Homo sapiens (Human), UniProt Q9Y5Z0). Kind of assay: BACE-2 assay (BACE-HTRF, time-resolved endpoint proteolysis). To be noted: read-out: BACE2 Ki; Ki calculated from IC50 using the Cheng-Prusoff equation.
Assay [2] has as its target soluble human BACE1 catalytic domain (Homo sapiens (Human), UniProt P56817). Kind of assay: BACE1 HTRF FRET assay. Conditions: read-out: BACE1 Ki; Ki calculated from IC50 using the Cheng-Prusoff equation.

Chains of the proteins cited; added tags and fusions are not shown. Residues count along the entry.
UniProt Q9Y5Z0, 63-473 limits assumed: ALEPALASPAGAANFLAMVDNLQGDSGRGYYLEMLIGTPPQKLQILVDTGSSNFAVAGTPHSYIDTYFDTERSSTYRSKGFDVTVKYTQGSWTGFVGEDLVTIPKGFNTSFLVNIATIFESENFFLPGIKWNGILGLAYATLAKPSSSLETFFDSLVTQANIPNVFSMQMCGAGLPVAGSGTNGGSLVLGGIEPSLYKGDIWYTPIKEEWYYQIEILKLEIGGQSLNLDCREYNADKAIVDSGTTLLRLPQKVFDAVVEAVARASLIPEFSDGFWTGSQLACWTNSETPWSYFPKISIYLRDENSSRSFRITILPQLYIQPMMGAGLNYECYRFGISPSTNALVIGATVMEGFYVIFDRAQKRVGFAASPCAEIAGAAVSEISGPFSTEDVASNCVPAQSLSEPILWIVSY
UniProt P56817, 75-416 limits assumed: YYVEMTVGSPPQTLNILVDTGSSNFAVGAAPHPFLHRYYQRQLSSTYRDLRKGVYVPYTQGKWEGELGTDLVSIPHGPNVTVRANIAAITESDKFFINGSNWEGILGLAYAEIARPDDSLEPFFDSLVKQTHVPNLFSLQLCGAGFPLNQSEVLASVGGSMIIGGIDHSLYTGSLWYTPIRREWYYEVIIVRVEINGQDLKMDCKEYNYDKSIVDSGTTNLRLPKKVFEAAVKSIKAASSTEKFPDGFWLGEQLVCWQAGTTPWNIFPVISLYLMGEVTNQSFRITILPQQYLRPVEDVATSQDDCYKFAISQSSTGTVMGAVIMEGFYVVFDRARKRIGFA

Molecules are shown by their SMILES.

Turning to `CN1C(=N)N[C@](C)(c2sc(-c3cncc(-c4nnco4)c3)cc2Cl)CS1(=O)=O`, the Ki in assay [1] was 8.9 nM; in assay [2] it was 3.7 nM.

With `CN1C(=N)N[C@](C)(c2cc(-c3cccc(-c4ncco4)c3)ccc2F)CS1(=O)=O`, the inhibition constant Ki is 219 nM in assay [1] and 1950 nM in assay [2].

By Ki is commonly meant a dissociation constant, usually derived from enzyme kinetics or from competition with a known ligand.
